{
  "sequences": {"note": "By UniProt entry, the sequences of proteins in these tests, tags left out. Where a name states a change or a piece, a line headed by the entry shows the natural chain unless it says otherwise.", "UniProt P32755": "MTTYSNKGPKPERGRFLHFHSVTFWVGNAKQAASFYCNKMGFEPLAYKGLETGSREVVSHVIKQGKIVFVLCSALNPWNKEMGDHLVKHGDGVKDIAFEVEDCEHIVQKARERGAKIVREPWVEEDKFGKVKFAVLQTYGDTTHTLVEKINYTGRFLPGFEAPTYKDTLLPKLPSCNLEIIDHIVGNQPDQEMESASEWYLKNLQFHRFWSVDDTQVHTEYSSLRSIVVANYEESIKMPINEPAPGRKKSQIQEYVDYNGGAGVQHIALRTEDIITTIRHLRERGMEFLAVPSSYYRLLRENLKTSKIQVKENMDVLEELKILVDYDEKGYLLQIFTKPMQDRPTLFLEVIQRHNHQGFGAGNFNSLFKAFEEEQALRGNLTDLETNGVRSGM"},
  "source": "ChEMBL document CHEMBL4049382",
  "about": "“4-Hydroxyphenylpyruvate Dioxygenase and Its Inhibition in Plants and Animals: Small Molecules as Herbicides and Agents for the Treatment of Human Inherited Diseases” (J Med Chem, 2017)",
  "key": {"[1]": {"molecular_target": "T1, 4-hydroxyphenylpyruvate dioxygenase (Rattus norvegicus, UniProt P32755)", "assay": "Inhibition of Wistar rat liver HPPD using 4-Hydroxyphenylpyruvate as substrate assessed as reduction in oxygen consumption preincubated for 3 mins followed by substrate addition"}, "[2]": {"molecular_target": "T1, 4-hydroxyphenylpyruvate dioxygenase", "assay": "Inhibition of Wistar rat liver cytosol HPPD using HPP as substrate assessed as reduction in O2 consumption"}},
  "data": [
    {"smiles": "O=C1CCCC(=O)C1C(=O)c1ccc(C(F)(F)F)cc1[N+](=O)[O-]", "note": "[NITISINONE]", "values": [
      {"measurement": "IC50", "setting": "[1]", "value": 40, "unit": "nM"},
      {"measurement": "IC50", "setting": "[2]", "value": 40, "unit": "nM"}
    ]}
  ]
}
